# Results reported in PubChem BioAssay (NCI).
#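 All cell lines were grown in 96-well plates and treated with compound for 48 hours. The concentration for 50% growth inhibition is given as GI50. TGI marks complete inhibition of growth.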
# What was measured:
# Assay in all cases: NCI-60 cell line screen, 48 h
# NCI-H23 lung = system: NCI-H23 lung
# NCI-H322M lung = system: NCI-H322M lung
# NCI-H460 lung = system: NCI-H460 lung
# NCI-H522 lung = system: NCI-H522 lung
# NCI/ADR-RES ovarian = system: NCI/ADR-RES ovarian
# OVCAR-3 ovarian = system: OVCAR-3 ovarian
# OVCAR-4 ovarian = system: OVCAR-4 ovarian
# OVCAR-5 ovarian = system: OVCAR-5 ovarian
# OVCAR-8 ovarian = system: OVCAR-8 ovarian
# PC-3 prostate = system: PC-3 prostate
# RPMI-8226 leukemia = system: RPMI-8226 leukemia
# SF-268 CNS = system: SF-268 CNS
# SF-295 CNS = system: SF-295 CNS
# SK-MEL-2 melanoma = system: SK-MEL-2 melanoma
# SK-MEL-28 melanoma = system: SK-MEL-28 melanoma
# SK-MEL-5 melanoma = system: SK-MEL-5 melanoma
# SK-OV-3 ovarian = system: SK-OV-3 ovarian
# SN12C renal = system: SN12C renal
# SNB-19 CNS = system: SNB-19 CNS
# SNB-75 CNS = system: SNB-75 CNS
# SR leukemia = system: SR leukemia
# SW-620 colon = system: SW-620 colon
# T-47D breast = system: T-47D breast
# TK-10 renal = system: TK-10 renal
# U251 CNS = system: U251 CNS
# UACC-257 melanoma = system: UACC-257 melanoma
# UACC-62 melanoma = system: UACC-62 melanoma
# UO-31 renal = system: UO-31 renal
smiles,measurement,setting,value
COP(C)(=O)C(N)Cc1ccccc1.O=[N+]([O-])c1cc([N+](=O)[O-])c(O)c([N+](=O)[O-])c1,TGI,NCI-H23 lung,> 100 µM
same,GI50,NCI-H322M lung,> 100 µM
same,TGI,NCI-H322M lung,> 100 µM
same,GI50,NCI-H460 lung,> 100 µM
same,TGI,NCI-H460 lung,> 100 µM
same,GI50,NCI-H522 lung,80.3 µM
same,TGI,NCI-H522 lung,> 100 µM
same,GI50,NCI/ADR-RES ovarian,> 100 µM
same,TGI,NCI/ADR-RES ovarian,> 100 µM
same,GI50,OVCAR-3 ovarian,> 100 µM
same,TGI,OVCAR-3 ovarian,> 100 µM
same,GI50,OVCAR-4 ovarian,> 100 µM
same,TGI,OVCAR-4 ovarian,> 100 µM
same,GI50,OVCAR-5 ovarian,> 100 µM
same,TGI,OVCAR-5 ovarian,> 100 µM
same,GI50,OVCAR-8 ovarian,> 100 µM
same,TGI,OVCAR-8 ovarian,> 100 µM
same,GI50,PC-3 prostate,> 100 µM
same,TGI,PC-3 prostate,> 100 µM
same,GI50,RPMI-8226 leukemia,> 100 µM
same,TGI,RPMI-8226 leukemia,> 100 µM
same,GI50,SF-268 CNS,> 100 µM
same,TGI,SF-268 CNS,> 100 µM
same,GI50,SF-295 CNS,> 100 µM
same,TGI,SF-295 CNS,> 100 µM
same,GI50,SK-MEL-2 melanoma,> 100 µM
same,TGI,SK-MEL-2 melanoma,> 100 µM
same,GI50,SK-MEL-28 melanoma,> 100 µM
same,TGI,SK-MEL-28 melanoma,> 100 µM
same,GI50,SK-MEL-5 melanoma,71.8 µM
same,TGI,SK-MEL-5 melanoma,> 100 µM
same,GI50,SK-OV-3 ovarian,> 100 µM
same,TGI,SK-OV-3 ovarian,> 100 µM
same,GI50,SN12C renal,> 100 µM
same,TGI,SN12C renal,> 100 µM
same,GI50,SNB-19 CNS,> 100 µM
same,TGI,SNB-19 CNS,> 100 µM
same,GI50,SNB-75 CNS,> 100 µM
same,TGI,SNB-75 CNS,> 100 µM
same,GI50,SR leukemia,> 100 µM
same,TGI,SR leukemia,> 100 µM
same,GI50,SW-620 colon,> 100 µM
same,TGI,SW-620 colon,> 100 µM
same,GI50,T-47D breast,> 100 µM
same,TGI,T-47D breast,> 100 µM
same,GI50,TK-10 renal,> 100 µM
same,TGI,TK-10 renal,> 100 µM
same,GI50,U251 CNS,> 100 µM
same,TGI,U251 CNS,> 100 µM
same,GI50,UACC-257 melanoma,97.2 µM
same,TGI,UACC-257 melanoma,> 100 µM
same,GI50,UACC-62 melanoma,> 100 µM
same,TGI,UACC-62 melanoma,> 100 µM
same,GI50,UO-31 renal,> 100 µM
same,TGI,UO-31 renal,> 100 µM
